{
  "source": "patent US20240383924A1",
  "about": "“BENZOPYRIMIDINE COMPOUNDS AND USE THEREOF” (priority 2022, published 2024)",
  "key": {"[1]": {"test_system": "phospho-ERK in GP2D cells", "test": "Inhibition of phospho-ERK in GP2D cells (Odyssey in-cell imaging)", "conditions": "read-out: Inhibitory effects on intracellular phospho-ERK IC50, 1 hour compound, EGF stimulation", "method": "Assay example 3. Inhibitory effect of compounds on phospho-ERK in GP2D cells\nIn this assay, the inhibitory effect of the assayed compounds on the phosphorylation of ERK protein downstream of the KRAS […] signaling pathway in human colon cancer GP2D cells was analyzed.\n2. Reagents, consumables and instruments\n3.Assay process 1. Cell culture\n1) GP2D cells were cultured in a cell culture 75 flask at 37° C., 5% CO2, and the medium was DMEM medium (added with 10% FBS and 1% P/S).\n2) After cultivation for 2 days, the medium was removed and the sterile PBS buffer was used to wash once.\n3) 3 mL of trypsin was added and the cells were digested in a 37° C. incubator for 2 to 3 minutes until cells fell off.\n4) 9 mL of fresh culture medium was added to neutralize the digestion; the cells were aspirated into a centrifuge tube and centrifuged at 1000 rpm at room temperature for 5 minutes.\n5) The supernatant was removed, and 3 mL of fresh culture medium was added to resuspend the cells; the cells were counted by a cell counter.\n1) 7000 cells per well were plated in a 384-cell culture plate with 40 μL of culture medium, and cultured overnight in a 37° C. and 5% CO2 incubator.\n2) The Echo655 instrument was used to add 40 nL of serially diluted compounds (the initial concentration of the compound was 1000 nM, and the compound was serially diluted 3-fold. […]"}, "[2]": {"test": "Pharmacokinetic study in vivo in mice", "design": "species or system mouse", "conditions": "male C57BL/6J mice; for Cmax: read-out: peak concentration Cmax"}, "[3]": {"test_system": "KRAS^G12D mutated AsPC-1 cells", "test": "Anti-cell proliferation in tumor cell line AsPC-1 (CellTiter-Glo 3D)", "conditions": "read-out: Anti-proliferation Activity against KRAS^G12D Mutated AsPC-1 Cells IC50; AsPC-1, 120 hours, 3D culture", "text": "Assay example 2. Anti-cell proliferation effects of compounds in tumor cell line AsPC-1 1. Research purpose\nIn this assay, the inhibitory effects of compounds on cell proliferation were studied by detecting the effects of compounds on the in vitro cell activity in the tumor cell line AsPC-1.\nUltra Low Cluster-96 well plate (Corning-7007)\nGreiner CELLSTAR 96-well plate (#655090)\nPromega CellTiter-Glo 3D Luminescence Cell Viability Detection Kit (Promega-G9683)\n2104-10 En Vision Plate Reader, PerkinElmer\nRPMI 1640, DMEM, PBS (phosphate buffered solution), FBS (fetal bovine serum), Antibiotic-antimycotic, L-glutamine, DMSO (dimethyl sulfoxide)\n3. Assay methods and steps Cell culture\nThe tumor cell line was cultured in a 37° C., 5% CO2 incubator according to the culture conditions indicated in the culture method. […]\nCells were stained with trypan blue and viable cells were counted. […]\nCellTiter-Glo luminescence assay for cell viability detection (day 5)\nThe following steps were performed according to the instructions of the Promega CellTiter-Glo 3D Luminescence Cell Viability Dectection Kit (Promega #G9683). […]\nThe solution in the ULA culture plate was then transferred to a black bottom culture plate (#655090) and left at room temperature for 25 minutes to stabilize the luminescence signal.\nLuminescence signals were detected with a 2104 EnVision plate reader. […]"}, "[4]": {"conditions": "intravenous administration, dose 1.74-1.94 mg/kg"}, "[5]": {"conditions": "oral administration, dose 28.2-51.0 mg/kg"}},
  "data": [
    {"smiles": "C#Cc1c(F)ccc2cc(N)cc(-c3c(F)cc4c(N5CC6C=CC(C5)N6)nc(OCC56CCCN5CC(=C)C6)nc4c3F)c12", "note": "(single isomer, unassigned)", "values": [
      {"measurement": "IC50", "setting": "[1]", "result": 120, "unit": "pM"},
      {"measurement": "apparent volume of distribution Vdss", "setting": "[2]; [4]", "result": 94.2, "unit": "L/kg"},
      {"measurement": "area under plasma concentration-time curve AUC0-last", "setting": "[2]; [4]", "result": 0.405, "unit": "µM·h"},
      {"measurement": "clearance rate CL", "setting": "[2]; [4]", "result": 106, "unit": "mL/min/kg"},
      {"measurement": "half-life T1/2", "setting": "[2]; [4]", "result": 20.3, "unit": "h"},
      {"measurement": "area under plasma concentration-time curve AUC0-last", "setting": "[2]; [5]", "result": 3.146, "unit": "µM·h"},
      {"measurement": "bioavailability F", "setting": "[2]; [5]", "result": 31.0, "unit": "%"},
      {"measurement": "peak time Tmax", "setting": "[2]; [5]", "result": 0.25, "unit": "h"},
      {"measurement": "Cmax", "setting": "[2]; [5]", "result": 1960, "unit": "nM"}
    ]},
    {"smiles": "C#Cc1c(F)ccc2cc(N)cc(-c3c(F)cc4c(N5CC6C=CC(C5)N6)nc(OCC56CCCN5CC(=CF)C6)nc4c3F)c12", "note": "(single isomer, unassigned)", "values": [
      {"measurement": "IC50", "setting": "[3]", "result": 6500, "unit": "pM"},
      {"measurement": "IC50", "setting": "[1]", "result": 69, "unit": "pM"},
      {"measurement": "apparent volume of distribution Vdss", "setting": "[2]; [4]", "result": 51.4, "unit": "L/kg"},
      {"measurement": "area under plasma concentration-time curve AUC0-last", "setting": "[2]; [4]", "result": 0.488, "unit": "µM·h"},
      {"measurement": "clearance rate CL", "setting": "[2]; [4]", "result": 95.7, "unit": "mL/min/kg"},
      {"measurement": "half-life T1/2", "setting": "[2]; [4]", "result": 10.7, "unit": "h"},
      {"measurement": "area under plasma concentration-time curve AUC0-last", "setting": "[2]; [5]", "result": 2.409, "unit": "µM·h"},
      {"measurement": "bioavailability F", "setting": "[2]; [5]", "result": 19.1, "unit": "%"},
      {"measurement": "peak time Tmax", "setting": "[2]; [5]", "result": 0.25, "unit": "h"},
      {"measurement": "Cmax", "setting": "[2]; [5]", "result": 1380, "unit": "nM"}
    ]}
  ]
}
